Source: patent US20100204328A1, “Solution and Method to Reduce, Treat and/or Prevent Oxidative Stress and Cell Activation” (priority 2006, published 2010)

Tested on: White blood cells (WBC)
Test: Inhibition of cell activation/ROS-generation by addition of free radical scavengers (H2DCF-DA fluorescence)
Format: cell-based, human
Details: WBC preincubated 30-60 minutes, PMA or LPS stimulus, FIG. 15
Text: Phorbol-myristate-acetate (PMA) was used as a very effective cell activation agent to induce ROS formation and other cell activation markers, see FIG. 14. Albumin was used as a macromolecular scavenger as known for high SH content and binding sites for radicals of different chemical species (O2, H2O2, ONOO2, HOCl). Other macromolecules with SH sites could also be applied.
White blood cells (WBC) were isolated from freshly donated human whole blood. This was done by collecting whole blood from healthy donors on Heparin anticoagulation. Leukocytes were isolated out of the whole blood with the help of an isolation gradient (Polymorphprep). Isolated Leukocytes were diluted in PBS or RPMI 1640 cell culture media and a concentration of 2×10^6/ml was chosen. The cells were stored at 37° in 5% CO2. The cells were preincubated with the substances at 37° C. for 30-60 minutes. […] For ROS-measurement a fluorescence dye (dichlorodihydrofluorescein-diacetate, H2DCF-DA) was added at 10 μM final concentration. The cells were incubated with the substance, the fluorescence dye and the activator for 2 hrs and the fluorescence intensity kinetics was measured over time. To compare the result between two substances, the fluorescence intensity at a certain time point, e.g. 30 minutes) was recorded. For comparison the fluorescence at a certain time is shown in the diagram in FIG. 15.

albumin: macromolecular scavenger known for high SH content and binding sites for radicals
free radical formation: increasing the albumin concentration doesn't enable further signal reduction
